The values below come from ChEMBL document CHEMBL1255523, “Optimization of N-benzyl-benzoxazol-2-ones as receptor antagonists of macrophage migration inhibitory factor (MIF)” (Bioorg Med Chem Lett, 2010).

Protein sequences, listed by entry. Tags and fused reporters are not part of them. Lines headed by an entry give the natural chain unless they say otherwise; changes in a name come on top.
UniProt P14174: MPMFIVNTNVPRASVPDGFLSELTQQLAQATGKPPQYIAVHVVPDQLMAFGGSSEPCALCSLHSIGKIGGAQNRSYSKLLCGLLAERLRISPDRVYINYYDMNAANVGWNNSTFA
UniProt P04233: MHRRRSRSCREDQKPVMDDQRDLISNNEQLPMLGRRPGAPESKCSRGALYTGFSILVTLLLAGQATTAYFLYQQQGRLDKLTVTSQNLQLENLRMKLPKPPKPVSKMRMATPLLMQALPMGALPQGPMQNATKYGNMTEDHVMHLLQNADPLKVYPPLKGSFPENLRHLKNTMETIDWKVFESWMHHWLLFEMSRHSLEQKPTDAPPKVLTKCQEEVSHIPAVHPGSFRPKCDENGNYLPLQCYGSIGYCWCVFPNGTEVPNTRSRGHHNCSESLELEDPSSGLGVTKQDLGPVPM

This test concerns the target MIF/CD74 (Macrophage migration inhibitory factor and HLA-DR antigens-associated invariant chain) (Homo sapiens) (UniProt P14174+P04233). Nature of the test: Inhibition of human recombinant biotinylated MIF/CD74 interaction at up to 10 uM after 30 mins. The test is classed as protein assay. In outline: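 Bound MIF was detected with streptavidin-alkaline phosphatase and p-nitrophenylphosphate substrate. Compounds were tested over 500- to 5000-fold concentration ranges.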
For `Cc1ccc2oc(=O)n(Cc3cccc(F)c3)c2c1`, the inhibition is 14%.

`Cc1ccc2oc(=O)n(Cc3ccc(O)cc3)c2c1`: the inhibition was found to be 10%.

In the case of `O=c1oc2ccc(O)cc2n1Cc1ccccc1`, the inhibition is 23%.

For the compound `COc1cccc(Cn2c(=O)oc3ccc(F)cc32)c1`, the inhibition is 17%.

Usually inhibition stands for the change of the read-out against control, counted positive when it falls.
